From article PMC11370000 (Nature cell biology, 2023)

Target: GST-RCC1L (amino acids 32-464) (human, UniProt Q96I51 32-464)
Test: pull-down

- binding result: binds
B1: 6xHis-NME6 (NME6-WT, recombinant) (natural protein, human, UniProt O75414-4 1-194, looked up)
chain: MTQNLGSEMASILRSPQALQLTLALIKPDAVAHPLILEAVHQQILSNKFLIVRMRELLWRKEDCQRFYREHEGRFFYQRLVEFMASGPIRAYILAHKDAIQLWRTLMGPTRVFRARHVAPDSIRGSFGLTDTRNTTHGSDSVVSASREIAAFFPDFSEQRWYEEEEPQLRCGPVCYSPEGGVHYVAGTGGLGPA
